The values below are quoted from earlier work in PMC2783503 (Journal of medicinal chemistry, 2009).

pIC50: −log10 of the molar value.

Series [1] addresses μ opioid receptor. The following applies: Ki^μ relative to Ki^δ = 1; ref Schiller et al.[10]; cited from earlier work.
Series [2] has as its target κ opioid receptor. The following applies: Ki^κ relative to Ki^δ = 1; ref Schiller et al.[10]; cited from earlier work.
Series [3] deals with μ opioid receptor. The following applies: read-out: GPI IC50; ref Schiller et al.[10]; cited from earlier work.

For the substance H-Tyr-Tic-Phe-Phe-OH [compound 8], the “Ki ratio δ/μ/κ: μ term” value in series [1] was 1410. The “Ki ratio δ/μ/κ: κ term” value in series [2] is on record as above 820. The pIC50 in series [3] is below 5.00.
